Compounds with a hit are over-represented: about 4.2% of the library has one in this group of screens.
MC4R barr agon: activates human MC4R beta-arrestin recruitment; P32245; U2OS MC4R beta-arrestin complementation, luminescence; percent of melanotan II response, DMSO zero; activation, % at 8.9 µM; hit rate 0.98% among 360,000; AID 540308;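 active means activation above a per-plate cutoff, the mean activation of sample wells on that plate plus 3 SD, cut at about 8% in these data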
MC4R antag cAMP: human MC4R antagonism in cAMP assay; P32245; inhibition, % at 6.5 µM; hit rate 0.48% among 360,000; MC4R-expressing cells, MTII-stimulated cAMP, LANCE TR-FRET;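 active means inhibition above its plate's cutoff, the mean of tested wells on that plate plus 3 SD, cut at about 29% in these data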
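Assay system: U2OS-MC4R stable cell line; Also added: Melanotan II; Technique: Eu-cAMP/anti-cAMP TR-FRET, emission 671 nm; Times: 30-min compound, 1-h challenge, 1-h detection, room temperature.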
ALR inh: blocks human ALR sulfhydryl oxidase activity | inhibition, % (test concentration not listed) | 3.8% of 290,000 active | AID 485317 | purified ALR, DTT oxidation, H2O2 HRP-luminol luminescence | P55789;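 active means mean and each replicate at 75% or more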;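 further: stock transfer was 7.5 nL into about 7.5 µL; 0% = neutral wells and 100% = wells with inactivated enzyme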
Yeast UUG start: modulators of yeast start codon fidelity, primary screen, whole organism, S. cerevisiae, single point, plate reader | AID 602363, 2012 | actives 0.13% (n = 350,000) | activity score, % at 18.7 µM | S. cerevisiae UUG-firefly luciferase reporter, luminescence/redox ratio;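 active means replicate mean at a twofold rise or more, about +100% in these data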;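 further: firefly luciferase made from a UUG start codon reports start codon fidelity; reporter light over untreated wells divided by growth signal over untreated wells; some hits fall short of that in this replicate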
HDAC3 inh: blocks human histone deacetylase 3. O15379. recombinant HDAC3, fluorogenic peptide/trypsin coupled, fluorescence. inhibition, % at 8.3 µM. hit rate 0.15% among 320,000; in the data active means inhibition above about 26%, passing the limit was not always enough; inconclusive means no clear call, values can overlap the other calls
NALP1 yeast inh: NALP1 inhibition. S. cerevisiae NALP1/ASC/caspase-1 growth, X-gal OD620, 72 h. inhibition, % at 10 µM. hit rate 0.61% among 280,000; in the data active means inhibition mostly above about 24%, no sharp cut-off; inactive means mostly below about 32%
Of the large screens only hits and unclear results are named; the others gave an inactive call.

C[C@H](CO)N1C[C@H](C)[C@H](CN(C)C(=O)Nc2ccccc2)Oc2cc(C#C[C@@H](C)O)ccc2S1(=O)=O	none (no result: MC4R barr agon, MC4R antag cAMP, ALR inh, HDAC3 inh, NALP1 yeast inh)
Cc1ccc(C(=O)N2CCCC(Nc3ccc(C)c(C)c3)C2)c(=O)[nH]1 (stereo not given)	none
CSc1ncccc1C(=O)N1CCCC(Nc2ccc(C)c(C)c2)C1 (stereo not given)	ALR inh 99
NS(=O)(=O)c1ccc(-c2ccc(/C=N/NC(=O)c3ccc([N+](=O)[O-])cc3)o2)cc1	none
CCCOc1ccc(C(=O)N/N=C/c2ccc(-c3ccc(S(=O)(=O)Nc4ncccn4)cc3)o2)cc1	HDAC3 inh inconclusive, NALP1 yeast inh 43
COc1ccc(S(=O)(=O)Cc2ccc(C(=O)N3CCN(c4ccc(Cl)cc4)CC3)o2)cc1	ALR inh 86
COc1ccc(S(=O)(=O)Cc2ccc(C(=O)N3CCN(C4CCCCC4)CC3)o2)cc1	ALR inh 92
COc1ccc(N2CCN(C(=O)c3ccc(CS(=O)(=O)c4ccc(OC)cc4)o3)CC2)cc1	none
COc1ccc(N2CCN(C(=O)c3ccc(C)cc3Cl)CC2)cc1	ALR inh 92
COc1cc(SC)ccc1C(=O)N1CCN(c2ccccc2)CC1	none (no result: Yeast UUG start)
COc1ccc(N2CCN(C(=O)c3ccc(C)c(Cl)c3)CC2)cc1	none
COc1cc(SC)ccc1C(=O)N1CCN(c2ccc(O)cc2)CC1	ALR inh 99
C[C@H](CO)N1C[C@H](C)[C@@H](CN(C)Cc2ccc(C(=O)Nc3ccccc3N)cc2)Oc2c(NC(=O)c3nc4ccccc4s3)cccc2C1=O	none (no result: MC4R barr agon, MC4R antag cAMP, ALR inh, HDAC3 inh, NALP1 yeast inh)
COc1ccc(N2CCN(C(=O)c3ccc(Br)o3)CC2)cc1	ALR inh 84
COc1ccc(S(=O)(=O)Cc2ccc(C(=O)N3CCc4ccccc4C3)o2)cc1	ALR inh 97
Cc1ccc(S(=O)(=O)Cc2ccc(C(=O)N3CCc4ccccc4C3)o2)cc1	none
COc1ccc(S(=O)(=O)Cc2ccc(C(=O)N3CCN(c4cccc(C)c4)C(C)C3)o2)cc1 (stereo not given)	ALR inh 94
COc1ccccc1N1CCN(C(=O)c2ccc(Br)o2)CC1	none (no result: ALR inh, NALP1 yeast inh)
COc1ccccc1S(=O)(=O)Cc1ccc(C(=O)N2CCN(c3ccc(C)cc3)C(C)C2)o1 (stereo not given)	none
O=C(C[C@H]1C[C@@H]2c3cc(NS(=O)(=O)c4ccc(F)cc4)ccc3O[C@@H]2[C@@H](CO)O1)NCc1ccc(-c2ccccc2)cc1	none (no result: MC4R barr agon, MC4R antag cAMP, ALR inh, HDAC3 inh, NALP1 yeast inh)
C[C@H](O)C#Cc1ccc2c(c1)O[C@H](CN(C)C(=O)CC1CC1)[C@H](C)CN([C@H](C)CO)S2(=O)=O	none (no result: MC4R barr agon, MC4R antag cAMP, ALR inh, HDAC3 inh, NALP1 yeast inh)
COC(=O)C(NNc1ccccc1C)(NC(=O)c1ccc(F)cc1)C(F)(F)F (stereo not given)	ALR inh 98
COc1ccc(S(=O)(=O)N2C[C@H](O)COC[C@H]3O[C@H](CC(=O)NCc4ccc(Cl)c(Cl)c4)CC[C@@H]32)cc1	none (no result: MC4R barr agon, MC4R antag cAMP, ALR inh, HDAC3 inh, NALP1 yeast inh)
COc1ccc(C(C)=O)cc1CSC(=N)N	ALR inh 99 (no result: Yeast UUG start)
S=c1nc(NCCc2ccccc2Cl)c2ccccc2[nH]1	MC4R barr agon 12
O=C(NCCC1=CCCCC1)C1CCC(CNc2nc(=S)[nH]c3ccccc23)CC1 (stereo not given)	none
O=C(NCCc1ccc(Cl)cc1)C1CCC(CNc2nc(=S)[nH]c3ccccc23)CC1 (stereo not given)	MC4R barr agon 16
CC1CCCN(C(=O)COc2ccc(-c3ccccc3)cc2)C1 (stereo not given)	none
Cc1ccc(NC2CCCN(C(=O)C3CCCC3)C2)cc1C (stereo not given)	ALR inh 99 (no result: HDAC3 inh)
CC(=O)c1ccc(OCC(=O)N2CCCC(Nc3ccc(C)c(C)c3)C2)cc1 (stereo not given)	ALR inh 85
Cc1ccc(NC2CCCN(C(=O)c3ccc(C)c(N4CCNC4=O)c3)C2)cc1C (stereo not given)	ALR inh 93 (no result: HDAC3 inh)
Cc1ccc(C(=O)N2CCCC(Nc3ccc(F)c(F)c3)C2)cn1 (stereo not given)	none
COc1ccc(NC2CCCN(C(=O)c3ccc4[nH]c(C)c(C)c4c3)C2)cc1OC (stereo not given)	ALR inh 99 (no result: Yeast UUG start)

From PubChem BioAssay
